Laboratory results reported in US10761085B2, “Method for determining a protein-protein interaction” (MEDICAL & BIOLOGICAL LABORATORIES CO., LTD., priority 2014, dated 2020).

By UniProt entry, the sequences of proteins in these tests, tags left out. Residues count along the entry.
UniProt Q00987, 1-119: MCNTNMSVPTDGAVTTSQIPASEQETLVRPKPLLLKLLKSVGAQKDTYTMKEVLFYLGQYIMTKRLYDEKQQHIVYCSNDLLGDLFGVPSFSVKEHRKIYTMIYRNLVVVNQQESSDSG

Columns and labels:
Assay type in all cases: cell-based
[1] = molecular target: T1, interaction between p53 and MDM2 (Homo sapiens, UniProt Q00987); assay: Fluorescent focus detection of p53(70)-MDM2 interaction, FIG. 3 system, HeLaS3 cells constitutively expressing mAG1-PB1 (Example 13); conditions: 20 μM, observed 15 minutes thereafter; mAG1-PB1 + p53(70)-PB1 + PB1-MDM2
T1 construct: a region having the amino acids from positions 1 to 119 of the MDM2 protein; expressed in transfected cells; host or cells: HEK293
Protocol: After that, the obtained mixture solution was added to the cultured cells and cultured for 20 hours.

[2] = molecular target: T1, interaction between p53 and MDM2; assay: Fluorescent focus detection of p53(70)-MDM2 interaction, FIG. 2 system, HEK293 cells (Example 6); conditions: 40 μM, 30 minutes; p53(70)-mAG1-PB1 or p53(70)-PB1-mAG1 with PB1-mAG1-MDM2
[3] = molecular target: T1, interaction between p53 and MDM2; assay: Fluorescent focus detection of p53(70)-MDM2 interaction, FIG. 8 system with different multimerizable proteins, HEK293 cells (Example 19); conditions: 40 μM; 30 minutes after the Nutlin-3 addition; all 9 combinations
Protocol: Subsequently, a DNA solution prepared by mixing 200 ng of each of the plasmids was diluted with 10 μL of OptiMEM. Thereafter, 0.8 μL of Fugene HD was added thereto and then stirred. The resultant was further mixed with 90 μl of the culture solution. After that, the obtained mixture solution was added to the cultured cells and cultured for 20 hours.

[4] = molecular target: T1, interaction between p53 and MDM2; assay: Fluorescent focus detection of p53(70)-MDM2 interaction, FIG. 1 system, HEK293 cells (Example 4); conditions: 40 μM, 30 minutes, room temperature; PB1-p53(70)+PB1-mAG1-MDM2 and p53(70)-mAG1-PB1+PB1-MDM2

- extinction of fluorescent foci (inhibition of p53-MDM2 interaction) [1]: the fluorescent foci were extinguished
- extinction of fluorescent foci (inhibition of p53-MDM2 interaction) [2]: fluorescent foci were extinguished
- extinction of fluorescent foci (inhibition of p53-MDM2 interaction) [3]: the fluorescent foci were extinguished
- extinction of fluorescent foci (inhibition of p53-MDM2 interaction) [4]: fluorescent foci were extinguished
Structure (SMILES): COc1ccc(C2=N[C@@H](c3ccc(Cl)cc3)[C@@H](c3ccc(Cl)cc3)N2C(=O)N2CCNC(=O)C2)c(OC(C)C)c1 [Nutlin-3]
